# Results from PubChem BioAssay AID588379 (National Center for Advancing Translational Sciences (NCATS), 2011).
# Chains of the proteins cited; added tags and fusions are not shown. Lines headed by an entry give the natural chain unless they say otherwise; changes in a name come on top.
# UniProt Q9HC16: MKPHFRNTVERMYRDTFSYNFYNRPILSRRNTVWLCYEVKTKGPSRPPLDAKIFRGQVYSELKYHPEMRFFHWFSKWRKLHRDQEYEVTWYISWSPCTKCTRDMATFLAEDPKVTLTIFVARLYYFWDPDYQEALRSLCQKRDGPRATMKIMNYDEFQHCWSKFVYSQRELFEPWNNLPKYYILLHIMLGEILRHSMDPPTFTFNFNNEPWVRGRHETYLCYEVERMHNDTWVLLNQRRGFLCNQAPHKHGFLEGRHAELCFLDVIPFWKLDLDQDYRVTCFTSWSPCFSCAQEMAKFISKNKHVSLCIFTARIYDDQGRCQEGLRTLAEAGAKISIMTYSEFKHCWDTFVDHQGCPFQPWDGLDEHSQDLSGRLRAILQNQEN
# Several values for one entry are separate records, joined by “and”; a condition that tells them apart may be missing. Identical values can stand only once. Only a part is listed here, and it is no random draw. Activity calls are given as the source filed them. The call rests on the fitted dose curve; in most records, active means well fitted inhibition curve with a large enough effect; inconclusive means small, poorly fitted or top-dose-only effect; inactive means flat fitted curve, though single readings scatter.
# Target: DNA dC->dU-editing enzyme APOBEC-3G (Homo sapiens) (UniProt Q9HC16)
# Assay: qHTS for inhibitors of Vif-A3G interactions: Validation; further: 0% is about no effect
# Conditions: Vif-A3G protein interaction assay; at 46.1 µM (top of the series)
# From the text: The recent discovery and characterization of host restriction factors, which provide a potent defense to invading retroviruses, has provided new targets for antiviral drug development. APOBEC3G (A3G) and APOBEC3F (A3F) are potent cytidine deaminases that block HIV-1 replication; HIV-1 expresses the Vif protein, which counteracts A3G and A3F by binding to them and inducing their proteasomal degradation.
# The Vif-A3G and Vif-A3F interactions provide two potential targets for development of small molecules which can interfere with the ability of Vif to degrade A3G or A3F. […] To identify inhibitors that can interfere with Vif mediated degradation of A3G and A3F, we have developed Hela cell lines that stably express A3G or A3F tagged with eYFP at the C-terminal end (A3G-eYFP or A3F-eYFP, respectively) and Vif. In the absence of an inhibitor, Vif induces degradation of A3G-eYFP and A3F-eYFP, and the cells are not fluorescent. In the presence of an inhibitor, it is expected that Vif will be unable to degrade A3G-eYFP and/or A3F-eYFP, resulting in an increase in yellow fluorescence. In this assays Vif A3G was screened against the Molecular Library Small Molecile Repository (MLSMR). […]
# 5 uL of 700 cells/well of A3G-YFP cells are dispensed into black, clear bottom plates. […] The plates are incubated overnight at 37 deg C and then read on the TTP Acumen (Ex 488/ Em 500-530).
row,SMILES,"activity change, negative = inhibition"
1,CN(C(=O)Cc1ccc(Cl)c(Cl)c1)[C@H]1CCCC[C@@H]1N1CCCC1,inactive: 5.24% and inactive: 3.93% and inactive: -11%
